Amino acid sequences for entries named in this document (tags omitted).
UniProt O35433, whole entry: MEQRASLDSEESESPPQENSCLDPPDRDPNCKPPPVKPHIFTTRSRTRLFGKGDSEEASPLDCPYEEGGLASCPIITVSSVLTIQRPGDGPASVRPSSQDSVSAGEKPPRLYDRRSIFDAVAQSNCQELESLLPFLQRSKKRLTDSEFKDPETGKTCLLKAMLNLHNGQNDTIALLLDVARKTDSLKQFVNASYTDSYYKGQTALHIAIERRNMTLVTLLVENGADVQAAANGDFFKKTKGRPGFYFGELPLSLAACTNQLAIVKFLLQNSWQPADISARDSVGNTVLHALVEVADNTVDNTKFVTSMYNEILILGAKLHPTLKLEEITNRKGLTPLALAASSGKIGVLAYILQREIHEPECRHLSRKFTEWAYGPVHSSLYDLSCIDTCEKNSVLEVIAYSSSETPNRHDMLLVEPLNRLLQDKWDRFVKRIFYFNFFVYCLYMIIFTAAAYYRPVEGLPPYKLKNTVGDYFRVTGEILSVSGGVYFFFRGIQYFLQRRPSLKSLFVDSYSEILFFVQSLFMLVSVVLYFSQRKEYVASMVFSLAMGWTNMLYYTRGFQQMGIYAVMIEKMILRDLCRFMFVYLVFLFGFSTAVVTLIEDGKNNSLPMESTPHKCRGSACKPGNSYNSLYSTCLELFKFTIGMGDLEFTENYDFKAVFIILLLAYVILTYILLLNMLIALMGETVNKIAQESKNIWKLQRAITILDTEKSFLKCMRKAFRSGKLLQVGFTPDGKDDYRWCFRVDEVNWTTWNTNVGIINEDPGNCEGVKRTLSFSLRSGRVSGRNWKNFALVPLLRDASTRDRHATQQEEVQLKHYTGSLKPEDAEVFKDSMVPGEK

In patent US6476076B1 (priority 1999, dated 2002):

Molecular target: CAP-activated channels in cultured neonatal rat dorsal root ganglion (DRG) neurons (Rattus norvegicus, UniProt O35433)
Experiment: Capsaicin-activated single channel assay
Parameters: key to the marks not given beside the values
Details: relative difference in ion conductance compared to CAP

Question: How did the Activations turn out when `COc1cc(CC(=O)NCC(COC(=O)C(C)(C)C)Cc2ccccc2)ccc1O` (stereo not shown) was run?
Answer: ++
